The text below walks through data of patent publication US20250171499A1, “PHARMACEUTICAL FORMULATIONS AND METHODS FOR THE TREATMENT OF METABOLIC AND LIVER DISORDERS” (Viking Therapeutics, Inc., priority 2022, published 2025).

By UniProt entry, the sequences of proteins in these tests, tags left out. Residues count along the entry.
UniProt P43220, 24-463, species assumed: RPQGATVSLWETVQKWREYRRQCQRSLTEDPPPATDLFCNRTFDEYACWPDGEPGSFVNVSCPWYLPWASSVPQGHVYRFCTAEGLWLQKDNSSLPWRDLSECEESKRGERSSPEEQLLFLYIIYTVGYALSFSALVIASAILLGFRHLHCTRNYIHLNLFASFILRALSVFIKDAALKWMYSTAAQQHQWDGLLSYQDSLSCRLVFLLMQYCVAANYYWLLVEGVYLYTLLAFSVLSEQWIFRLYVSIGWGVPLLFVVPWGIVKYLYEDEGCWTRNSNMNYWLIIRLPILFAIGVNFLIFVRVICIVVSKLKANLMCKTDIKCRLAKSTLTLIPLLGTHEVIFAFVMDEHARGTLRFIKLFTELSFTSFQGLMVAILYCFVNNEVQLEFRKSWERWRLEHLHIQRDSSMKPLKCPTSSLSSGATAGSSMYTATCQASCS

Test [1] has as its target T1, GIP receptor (Homo sapiens, UniProt P48546).
T1 sequence (P48546 22-466): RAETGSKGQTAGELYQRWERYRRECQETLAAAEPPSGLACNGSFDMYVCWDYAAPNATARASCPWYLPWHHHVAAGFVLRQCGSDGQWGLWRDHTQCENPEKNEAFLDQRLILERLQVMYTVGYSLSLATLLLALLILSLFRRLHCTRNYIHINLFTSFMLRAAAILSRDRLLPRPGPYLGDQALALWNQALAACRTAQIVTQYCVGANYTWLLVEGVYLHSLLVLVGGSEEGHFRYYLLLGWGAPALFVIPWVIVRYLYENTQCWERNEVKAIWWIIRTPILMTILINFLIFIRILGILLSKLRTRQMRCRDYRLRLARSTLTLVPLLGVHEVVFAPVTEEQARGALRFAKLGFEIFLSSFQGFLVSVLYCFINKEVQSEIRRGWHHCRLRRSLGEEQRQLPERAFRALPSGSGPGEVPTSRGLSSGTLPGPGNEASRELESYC
Put plainly: Binding assay in the presence or absence of 2% human serum albumin, GIP receptor. The conditions noted are these: IC50 with 2% HSA to IC50 with 0% HSA.

Test [2] concerns the target GLP-1 receptor (Homo sapiens, UniProt P43220). The conditions noted are these: IC50 with 2% HSA to IC50 with 0% HSA.

As for tirzepatide [reference compound], the “GIP receptor Ratio of HSA:No HSA” value in test [1] is given as 5.82. In test [2], the “GLP-1 receptor Ratio of HSA:No HSA” value came to 12.8.
